The numbers were not newly measured in publication PMC8071534, “Discovery of Potential, Dual-Active Histamine H3 Receptor Ligands with Combined Antioxidant Properties” (Molecules, 2021), which cites them from elsewhere.

The Ki is the equilibrium dissociation constant of an inhibitor or competing ligand from its target.

In the data set the target is hH3R. The arrangement: method as in PMID 30957954, PMID 31362197, PMID 21615387, PMID 28861918. To be noted: reference ligands, Figure 1; cited from earlier work.

In the case of `Clc1ccc(CCCOCCCN2CCCCC2)cc1` [Pitolisant, pitolisant], the Ki was 0.3 to 5.3 nM.
